Experimental data from patent publication US20260384438A1, “PYRROLOPYRIMIDINE CARBOXAMIDES” (published 2026).
pIC50, pKi: −log10 of the molar value. Where “and” joins values, the source holds several entries; their conditions need not be identical. Equal values may be shown once. Read-outs that look alike come from different tables or passages of the source.

Chains of the proteins cited; added tags and fusions are not shown. Residues count along the entry.
UniProt P05177, whole entry: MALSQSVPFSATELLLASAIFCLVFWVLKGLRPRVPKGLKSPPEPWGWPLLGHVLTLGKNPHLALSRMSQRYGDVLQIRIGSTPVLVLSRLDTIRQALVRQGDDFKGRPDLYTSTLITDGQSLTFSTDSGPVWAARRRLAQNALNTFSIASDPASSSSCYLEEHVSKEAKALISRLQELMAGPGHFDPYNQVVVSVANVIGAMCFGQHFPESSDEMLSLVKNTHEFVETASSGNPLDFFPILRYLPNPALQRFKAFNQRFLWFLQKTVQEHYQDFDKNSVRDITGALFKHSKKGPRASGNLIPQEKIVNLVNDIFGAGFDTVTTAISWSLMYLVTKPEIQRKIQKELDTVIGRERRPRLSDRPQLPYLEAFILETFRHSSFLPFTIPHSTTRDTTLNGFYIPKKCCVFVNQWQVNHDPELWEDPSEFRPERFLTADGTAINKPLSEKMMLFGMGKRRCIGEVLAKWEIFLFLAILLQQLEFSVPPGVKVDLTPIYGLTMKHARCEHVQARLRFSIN
UniProt P02708, 21-457 limits assumed: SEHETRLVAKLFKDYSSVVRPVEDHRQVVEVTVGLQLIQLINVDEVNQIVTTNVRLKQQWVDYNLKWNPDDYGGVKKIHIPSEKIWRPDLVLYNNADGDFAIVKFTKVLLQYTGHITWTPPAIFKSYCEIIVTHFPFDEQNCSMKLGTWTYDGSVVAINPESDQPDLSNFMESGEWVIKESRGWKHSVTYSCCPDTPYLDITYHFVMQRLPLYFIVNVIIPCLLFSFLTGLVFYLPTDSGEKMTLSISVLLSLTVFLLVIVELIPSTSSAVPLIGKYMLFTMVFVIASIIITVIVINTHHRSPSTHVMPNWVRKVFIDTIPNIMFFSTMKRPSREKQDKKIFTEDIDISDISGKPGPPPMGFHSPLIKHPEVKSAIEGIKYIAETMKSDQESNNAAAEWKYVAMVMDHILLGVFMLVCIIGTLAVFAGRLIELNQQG
UniProt P07510, 23-517 limits assumed: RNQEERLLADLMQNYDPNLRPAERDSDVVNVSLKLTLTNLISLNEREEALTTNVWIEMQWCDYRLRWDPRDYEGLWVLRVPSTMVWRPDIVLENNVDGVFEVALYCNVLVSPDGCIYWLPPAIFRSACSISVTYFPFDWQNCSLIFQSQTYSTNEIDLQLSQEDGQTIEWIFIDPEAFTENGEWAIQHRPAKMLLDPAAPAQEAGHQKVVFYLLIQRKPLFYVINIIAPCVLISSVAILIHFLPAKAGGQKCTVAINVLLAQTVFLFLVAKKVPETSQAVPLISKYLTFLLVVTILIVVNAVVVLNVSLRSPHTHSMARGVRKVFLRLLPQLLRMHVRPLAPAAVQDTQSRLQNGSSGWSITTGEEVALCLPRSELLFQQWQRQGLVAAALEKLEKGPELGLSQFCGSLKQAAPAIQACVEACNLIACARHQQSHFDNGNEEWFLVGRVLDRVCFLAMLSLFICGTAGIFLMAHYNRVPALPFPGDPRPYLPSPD
UniProt P25021, whole entry: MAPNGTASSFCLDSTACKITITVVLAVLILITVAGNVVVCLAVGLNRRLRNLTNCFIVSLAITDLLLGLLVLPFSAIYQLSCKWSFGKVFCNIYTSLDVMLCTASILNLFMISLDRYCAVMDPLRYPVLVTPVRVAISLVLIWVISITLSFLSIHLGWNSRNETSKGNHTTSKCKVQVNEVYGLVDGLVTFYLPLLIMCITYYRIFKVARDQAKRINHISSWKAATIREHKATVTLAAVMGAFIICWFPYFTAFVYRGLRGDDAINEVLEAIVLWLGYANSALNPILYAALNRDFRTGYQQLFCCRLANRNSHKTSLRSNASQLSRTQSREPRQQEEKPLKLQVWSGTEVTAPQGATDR
UniProt H0V4R7, 1-461: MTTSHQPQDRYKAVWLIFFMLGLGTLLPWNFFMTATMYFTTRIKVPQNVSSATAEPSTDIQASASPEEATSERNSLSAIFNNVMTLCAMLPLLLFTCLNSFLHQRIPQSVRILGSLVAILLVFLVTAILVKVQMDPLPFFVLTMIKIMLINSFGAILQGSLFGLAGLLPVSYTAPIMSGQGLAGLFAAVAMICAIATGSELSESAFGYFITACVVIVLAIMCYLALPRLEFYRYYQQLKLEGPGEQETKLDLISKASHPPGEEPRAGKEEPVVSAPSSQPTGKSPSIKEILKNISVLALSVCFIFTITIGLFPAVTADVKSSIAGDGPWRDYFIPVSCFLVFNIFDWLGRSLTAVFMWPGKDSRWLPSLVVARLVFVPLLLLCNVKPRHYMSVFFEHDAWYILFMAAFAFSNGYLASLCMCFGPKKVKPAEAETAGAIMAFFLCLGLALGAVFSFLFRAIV
UniProt P30536, whole entry: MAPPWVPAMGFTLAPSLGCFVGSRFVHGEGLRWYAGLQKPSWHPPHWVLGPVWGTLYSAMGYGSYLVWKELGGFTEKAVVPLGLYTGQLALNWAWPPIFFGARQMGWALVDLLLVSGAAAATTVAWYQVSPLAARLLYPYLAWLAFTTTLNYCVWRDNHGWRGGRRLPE
UniProt P35367, whole entry: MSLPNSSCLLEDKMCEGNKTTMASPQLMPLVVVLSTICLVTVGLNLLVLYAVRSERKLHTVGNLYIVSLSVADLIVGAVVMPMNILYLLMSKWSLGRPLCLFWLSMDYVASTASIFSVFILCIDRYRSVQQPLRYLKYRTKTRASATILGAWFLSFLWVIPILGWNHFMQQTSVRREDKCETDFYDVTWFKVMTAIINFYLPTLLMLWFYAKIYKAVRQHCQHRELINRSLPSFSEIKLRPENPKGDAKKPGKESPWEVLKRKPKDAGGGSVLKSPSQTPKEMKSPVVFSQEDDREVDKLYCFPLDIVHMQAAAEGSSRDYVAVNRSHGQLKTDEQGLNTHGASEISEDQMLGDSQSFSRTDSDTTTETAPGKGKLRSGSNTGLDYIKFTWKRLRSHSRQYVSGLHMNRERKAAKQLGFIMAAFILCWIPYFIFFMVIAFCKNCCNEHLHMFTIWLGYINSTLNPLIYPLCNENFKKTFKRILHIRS
UniProt P22002, whole entry: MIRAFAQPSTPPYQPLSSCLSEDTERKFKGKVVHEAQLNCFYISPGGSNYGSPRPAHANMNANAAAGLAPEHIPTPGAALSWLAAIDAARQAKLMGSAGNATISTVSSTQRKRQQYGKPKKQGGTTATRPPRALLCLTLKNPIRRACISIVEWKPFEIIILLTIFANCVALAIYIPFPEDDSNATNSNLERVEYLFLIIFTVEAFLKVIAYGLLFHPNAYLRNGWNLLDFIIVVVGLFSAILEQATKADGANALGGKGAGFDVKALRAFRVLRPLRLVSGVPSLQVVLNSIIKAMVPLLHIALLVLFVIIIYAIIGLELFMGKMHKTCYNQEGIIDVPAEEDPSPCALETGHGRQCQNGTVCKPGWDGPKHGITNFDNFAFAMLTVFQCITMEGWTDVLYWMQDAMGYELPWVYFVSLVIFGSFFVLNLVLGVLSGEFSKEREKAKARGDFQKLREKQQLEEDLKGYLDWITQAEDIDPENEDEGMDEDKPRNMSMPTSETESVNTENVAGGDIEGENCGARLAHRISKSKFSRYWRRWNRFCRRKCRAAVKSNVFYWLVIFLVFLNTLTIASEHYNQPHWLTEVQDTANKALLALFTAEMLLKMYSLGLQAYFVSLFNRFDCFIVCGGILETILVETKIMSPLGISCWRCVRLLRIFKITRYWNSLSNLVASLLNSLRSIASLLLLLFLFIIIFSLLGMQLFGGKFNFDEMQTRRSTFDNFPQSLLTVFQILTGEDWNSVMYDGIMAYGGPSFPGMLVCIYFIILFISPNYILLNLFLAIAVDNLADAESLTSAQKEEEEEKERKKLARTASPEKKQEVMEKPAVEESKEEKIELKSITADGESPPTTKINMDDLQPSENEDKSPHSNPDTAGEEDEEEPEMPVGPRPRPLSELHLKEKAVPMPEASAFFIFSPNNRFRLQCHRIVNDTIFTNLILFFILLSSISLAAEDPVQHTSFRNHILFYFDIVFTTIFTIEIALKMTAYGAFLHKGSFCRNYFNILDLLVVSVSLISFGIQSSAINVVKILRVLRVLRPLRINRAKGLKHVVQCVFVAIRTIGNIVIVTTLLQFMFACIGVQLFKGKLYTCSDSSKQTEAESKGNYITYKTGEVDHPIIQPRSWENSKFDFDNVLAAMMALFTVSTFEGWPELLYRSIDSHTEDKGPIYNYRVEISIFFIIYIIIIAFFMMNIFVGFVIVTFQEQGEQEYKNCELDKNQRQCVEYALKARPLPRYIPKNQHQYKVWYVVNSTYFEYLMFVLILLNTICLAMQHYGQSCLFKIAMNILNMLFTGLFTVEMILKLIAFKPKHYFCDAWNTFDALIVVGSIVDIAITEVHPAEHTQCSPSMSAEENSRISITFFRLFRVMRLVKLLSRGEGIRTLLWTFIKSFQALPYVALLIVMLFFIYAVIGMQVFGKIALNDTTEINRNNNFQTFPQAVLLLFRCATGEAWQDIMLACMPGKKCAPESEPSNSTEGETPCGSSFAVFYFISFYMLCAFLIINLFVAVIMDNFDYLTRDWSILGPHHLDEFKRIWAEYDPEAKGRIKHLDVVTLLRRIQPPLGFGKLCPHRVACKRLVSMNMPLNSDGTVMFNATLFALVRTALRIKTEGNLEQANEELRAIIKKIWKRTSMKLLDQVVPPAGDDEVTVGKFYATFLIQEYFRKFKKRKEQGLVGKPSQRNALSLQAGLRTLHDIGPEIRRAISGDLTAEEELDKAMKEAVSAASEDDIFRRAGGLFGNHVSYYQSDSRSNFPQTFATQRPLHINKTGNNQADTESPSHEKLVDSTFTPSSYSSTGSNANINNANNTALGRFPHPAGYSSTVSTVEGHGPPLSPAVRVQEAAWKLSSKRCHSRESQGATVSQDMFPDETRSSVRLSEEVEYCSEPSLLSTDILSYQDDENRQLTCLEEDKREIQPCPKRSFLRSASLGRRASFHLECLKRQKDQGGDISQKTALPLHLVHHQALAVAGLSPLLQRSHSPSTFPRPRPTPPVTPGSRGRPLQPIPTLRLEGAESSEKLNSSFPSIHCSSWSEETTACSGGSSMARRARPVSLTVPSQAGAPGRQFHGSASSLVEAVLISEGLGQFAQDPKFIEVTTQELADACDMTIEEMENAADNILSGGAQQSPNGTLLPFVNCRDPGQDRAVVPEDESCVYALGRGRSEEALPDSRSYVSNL
UniProt P08172, whole entry: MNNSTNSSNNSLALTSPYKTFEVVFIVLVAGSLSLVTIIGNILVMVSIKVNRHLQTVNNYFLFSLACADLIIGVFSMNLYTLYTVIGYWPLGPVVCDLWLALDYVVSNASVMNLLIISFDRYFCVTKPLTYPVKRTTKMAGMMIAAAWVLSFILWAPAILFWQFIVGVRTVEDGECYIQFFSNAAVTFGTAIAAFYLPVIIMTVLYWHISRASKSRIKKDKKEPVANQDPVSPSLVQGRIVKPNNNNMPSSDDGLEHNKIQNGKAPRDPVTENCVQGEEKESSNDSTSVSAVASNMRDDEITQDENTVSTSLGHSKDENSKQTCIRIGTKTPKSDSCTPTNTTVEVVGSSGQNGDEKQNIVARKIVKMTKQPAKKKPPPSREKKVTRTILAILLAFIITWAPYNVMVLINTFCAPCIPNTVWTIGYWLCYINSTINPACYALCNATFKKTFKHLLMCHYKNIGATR
UniProt P36544, 23-502 limits assumed: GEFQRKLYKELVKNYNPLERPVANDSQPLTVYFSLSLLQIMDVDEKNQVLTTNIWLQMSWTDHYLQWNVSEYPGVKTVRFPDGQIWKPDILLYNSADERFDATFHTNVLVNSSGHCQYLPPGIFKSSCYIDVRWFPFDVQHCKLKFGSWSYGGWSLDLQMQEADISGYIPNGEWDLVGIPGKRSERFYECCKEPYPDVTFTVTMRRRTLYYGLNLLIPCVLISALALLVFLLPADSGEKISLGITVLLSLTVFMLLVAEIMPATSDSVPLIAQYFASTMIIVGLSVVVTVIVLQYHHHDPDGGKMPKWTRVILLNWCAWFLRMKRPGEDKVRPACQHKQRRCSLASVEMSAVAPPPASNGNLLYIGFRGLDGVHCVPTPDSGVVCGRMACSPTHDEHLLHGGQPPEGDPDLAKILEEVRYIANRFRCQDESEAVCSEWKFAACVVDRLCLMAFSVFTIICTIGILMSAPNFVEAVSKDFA
UniProt P08913, whole entry: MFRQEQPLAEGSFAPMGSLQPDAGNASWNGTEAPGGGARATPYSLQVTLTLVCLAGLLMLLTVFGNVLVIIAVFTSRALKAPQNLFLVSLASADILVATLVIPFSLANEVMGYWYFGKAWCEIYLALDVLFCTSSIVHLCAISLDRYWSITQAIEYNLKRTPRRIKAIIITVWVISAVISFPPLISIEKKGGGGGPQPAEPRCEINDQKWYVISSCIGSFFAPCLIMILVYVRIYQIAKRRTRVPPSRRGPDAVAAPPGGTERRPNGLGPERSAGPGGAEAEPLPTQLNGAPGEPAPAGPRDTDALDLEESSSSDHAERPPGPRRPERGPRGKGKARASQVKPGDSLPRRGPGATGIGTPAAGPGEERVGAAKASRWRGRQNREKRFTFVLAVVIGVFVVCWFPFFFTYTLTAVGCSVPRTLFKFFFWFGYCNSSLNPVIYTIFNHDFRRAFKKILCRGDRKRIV

What was measured:
OVCAR3 tumors = assay: Human ovarian OVCAR3 cell line-derived xenograft model in female SCID mice; settings: for tumor regression: Day 21, P<0.001
[1] = In vitro biotransformation in rat hepatocytes; settings: 5 μM, 180 min
enriched kinases = assay: Kinase Affinity Tool (KAT) chemical proteomics assay, cell lysate mix (K562, MV4-11, SN-N-BE2, COLO-205)
CYP3A = assay: CYP inhibition, CYP3A; settings: read-out: CYP3A inhibition IC50; HLM, midazolam 3 μM
[2] = In vitro biotransformation in dog hepatocytes; settings: 5 μM, 180 min
PKMYT1 KO SKOV3 cells = assay: In vitro efficacy in combination with exatecan, PKMYT1 KO SKOV3; settings: with exatecan 1 nM, 7 days
[3] = In vivo tolerability, monotherapy, female SCID mice; settings: 300 mg/kg BID oral
CYP1A2 = CYP1A2 (Homo sapiens, UniProt P05177); assay: CYP inhibition, CYP1A2; settings: read-out: CYP1A2 inhibition IC50; HLM, phenacetin 30 μM
SKOV3 PKMYT1 KO (B2) = assay: CellTiter-Glo growth inhibition, SKOV3 PKMYT1 KO (B2)
SKOV3 Parental = assay: CellTiter-Glo growth inhibition, SKOV3 Parental
Log D octanol/PBS pH 7.4 = settings: octanol/PBS pH 7.4, 1 μM
[4] = Metabolic stability in human hepatocytes in suspension (hHEP); settings: 1 μM
α1 nicotinic receptor = α1 nicotinic receptor (Homo sapiens, UniProt P02708+P07510+Q07001); assay: Secondary pharmacology, radioligand binding
5-HT7 receptor = 5-HT7 receptor (Homo sapiens, UniProt P34969); assay: Secondary pharmacology, radioligand binding
μ opioid receptor = μ opioid receptor (Homo sapiens, UniProt P35372); assay: Secondary pharmacology, radioligand binding
[5] = tested on: Glycine receptor, Strychnine-Sensitive; assay: Secondary pharmacology, radioligand binding
H2 histamine receptor = H2 histamine receptor (Homo sapiens, UniProt P25021); assay: Secondary pharmacology, radioligand binding
[6] = tested on: NMDA receptor (Phencyclidine site); assay: Secondary pharmacology, radioligand binding
[7] = tested on: NMDA receptor (Agonist site); assay: Secondary pharmacology, radioligand binding
Adenosine Transporter = Adenosine Transporter (Cavia porcellus, UniProt H0V4R7); assay: Secondary pharmacology, radioligand binding
Ghrelin receptor = Ghrelin receptor (Homo sapiens, UniProt Q92847); assay: Secondary pharmacology, radioligand binding
5-HT4 receptor = 5-HT4 receptor (Homo sapiens, UniProt Q13639); assay: Secondary pharmacology, radioligand binding
[8] = molecular target: Translocator Protein (18 kDa) (TSPO) (Homo sapiens, UniProt P30536); assay: Secondary pharmacology, radioligand binding
H1 histamine receptor = H1 histamine receptor (Homo sapiens, UniProt P35367); assay: Secondary pharmacology, radioligand binding
α1A adrenoceptor = α1A adrenoceptor (Homo sapiens, UniProt P35348); assay: Secondary pharmacology, radioligand binding
NK1 neurokinin receptor = NK1 neurokinin receptor (Homo sapiens, UniProt P25103); assay: Secondary pharmacology, radioligand binding
[9] = molecular target: L-Type calcium channel (CaV1.2) (Benzothiazepine) (Rattus norvegicus, UniProt P22002); assay: Secondary pharmacology, radioligand binding
M2 muscarinic receptor = M2 muscarinic receptor (Homo sapiens, UniProt P08172); assay: Secondary pharmacology, radioligand binding
β1 adrenoceptor = β1 adrenoceptor (Homo sapiens, UniProt P08588); assay: Secondary pharmacology, radioligand binding
α7 nicotinic receptor = α7 nicotinic receptor (Homo sapiens, UniProt P36544); assay: Secondary pharmacology, radioligand binding
α2A adrenoceptor = α2A adrenoceptor (Homo sapiens, UniProt P08913); assay: Secondary pharmacology, radioligand binding
[10] = molecular target: Noradrenaline Transporter (NET) (Homo sapiens, UniProt P23975); assay: Secondary pharmacology, radioligand binding
[11] = read-out: GI50 VALUES, individual values, 7 days CTG
[12] = read-out: MEAN GI50 (N = 3), mean of N = 3, 7 days CTG

Cc1nc(C(F)(F)F)c2c(C(N)=O)c(N)n(-c3c(C)ccc(O)c3C)c2n1 (single isomer, unassigned)
tumor regression (OVCAR3 tumors; 10 mg/kg BID + 20 mg/kg gemcitabine i.p. once weekly): 31% | regrowth to 200 mm^3 tumor volumes following cessation of treatment (OVCAR3 tumors; 10 mg/kg BID + gemcitabine): 11 days | Regression (TGI vs vehicle, Day 21) (OVCAR3 tumors; 10 mg/kg BID Compound 137, Isomer 2 orally + 20 mg/kg Gemcitabine intraperitoneal once weekly): 31% Regression | TGI vs vehicle (Day 21) (OVCAR3 tumors; 10 mg/kg BID orally): 25% | tumor growth inhibition (TGI) (OVCAR3 tumors; 10 mg/kg BID, Day 21, P>0.05 non-significant): 25% | TGI vs vehicle (Day 21) (OVCAR3 tumors; 30 mg/kg BID orally): 12% | tumor growth inhibition (TGI) (OVCAR3 tumors; 30 mg/kg BID, Day 21, P>0.05 non-significant): 12% | tumor regression (OVCAR3 tumors; 50 mg/kg BID + 20 mg/kg gemcitabine i.p. once weekly): 62% | regrowth to 200 mm^3 tumor volumes following cessation of treatment (OVCAR3 tumors; 50 mg/kg BID + gemcitabine): 35 days | Regression (TGI vs vehicle, Day 21) (OVCAR3 tumors; 50 mg/kg BID Compound 137, Isomer 2 orally + 20 mg/kg Gemcitabine intraperitoneal once weekly): 62% Regression | TGI vs vehicle (Day 21) (OVCAR3 tumors; 100 mg/kg BID orally): 77% | tumor growth inhibition (TGI) (OVCAR3 tumors; 100 mg/kg BID, Day 21, P<0.01): 77% | efficacy of combinations versus monotherapies (OVCAR3 tumors; 10 or 50 mg/kg BID + gemcitabine): outperformed Compound 137, Isomer 2 monotherapy and gemcitabine monotherapy | Glucuronidation [1]: M (Major (>10%)) | Kinase selectivity (RB50 values) (enriched kinases): highly selective for PKMYT1 | pIC50 (CYP3A): < 4.52 | Glucuronidation [2]: M (Major (>10%)) | Oxidation [2]: M (Major (>10%)) | added effect on exatecan (1 nM) activity (PKMYT1 KO SKOV3 cells): did not improve further | body weight loss, paw or tail swelling, adverse events ([3]; 28 days, SCID mice): No significant loss of body weight, paw or tail swelling, or other noticeable adverse events | free Cmax ([3]; female SCID mice): approximately 21 μM | pIC50 (CYP1A2): < 4.52 | GI50 (SKOV3 PKMYT1 KO (B2); [11]): 35.1 µM and 39.5 µM and 32.6 µM | GI50 (SKOV3 PKMYT1 KO (B2); [12]): 35.8 µM | GI50 (SKOV3 Parental; [11]): 10.1 µM and 9.93 µM and 9.02 µM | GI50 (SKOV3 Parental; [12]): 9.69 µM | LogD (Log D octanol/PBS pH 7.4): 1.36 | Hhep (CLint) [4]: <1.324 μl/min/1E6 | Pharmacological mode of action (α1 nicotinic receptor): Inactive | pKi (α1 nicotinic receptor; read-out: Binding Ki): < 4.00 | Pharmacological mode of action (5-HT7 receptor): Inactive | pKi (5-HT7 receptor; read-out: Binding Ki): < 4.00 | Pharmacological mode of action (μ opioid receptor): Inactive | pKi (μ opioid receptor; read-out: Binding Ki): < 4.00 | Pharmacological mode of action [5]: Inactive | pKi ([5]; read-out: Binding Ki): < 4.00 | Pharmacological mode of action (H2 histamine receptor): Inactive | pKi (H2 histamine receptor; read-out: Binding Ki): < 4.00 | Pharmacological mode of action [6]: Inactive | pKi ([6]; read-out: Binding Ki): < 4.00 | Pharmacological mode of action [7]: Inactive | pKi ([7]; read-out: Binding Ki): < 4.00 | Pharmacological mode of action (Adenosine Transporter): Inactive | pKi (Adenosine Transporter; read-out: Binding Ki): < 4.00 | Pharmacological mode of action (Ghrelin receptor): Inactive | pKi (Ghrelin receptor; read-out: Binding Ki): < 4.00 | Pharmacological mode of action (5-HT4 receptor): Inactive | pKi (5-HT4 receptor; read-out: Binding Ki): < 4.00 | Pharmacological mode of action [8]: Inactive | pKi ([8]; read-out: Binding Ki): < 4.00 | Pharmacological mode of action (H1 histamine receptor): Inactive | pKi (H1 histamine receptor; read-out: Binding Ki): < 4.00 | Pharmacological mode of action (α1A adrenoceptor): Inactive | pKi (α1A adrenoceptor; read-out: Binding Ki): < 4.00 | Pharmacological mode of action (NK1 neurokinin receptor): Inactive | pKi (NK1 neurokinin receptor; read-out: Binding Ki): < 4.00 | Pharmacological mode of action [9]: Inactive | pKi ([9]; read-out: Binding Ki): < 4.00 | Pharmacological mode of action (M2 muscarinic receptor): Inactive | pKi (M2 muscarinic receptor; read-out: Binding Ki): < 4.00 | Pharmacological mode of action (β1 adrenoceptor): Inactive | pKi (β1 adrenoceptor; read-out: Binding Ki): < 4.00 | Pharmacological mode of action (α7 nicotinic receptor): Inactive | pKi (α7 nicotinic receptor; read-out: Binding Ki): < 4.00 | Pharmacological mode of action (α2A adrenoceptor): Inactive | pKi (α2A adrenoceptor; read-out: Binding Ki): < 4.00 | Pharmacological mode of action [10]: Inactive | pKi ([10]; read-out: Binding Ki): < 4.00
